Data as given in patent US8338422B2, “Indolin-2-ones and aza-indolin-2-ones” (Janssen Pharmaceutica NV, priority 2007, dated 2012).

The chains behind the UniProt entries cited, without tags or fusion partners.
UniProt O00444, whole entry: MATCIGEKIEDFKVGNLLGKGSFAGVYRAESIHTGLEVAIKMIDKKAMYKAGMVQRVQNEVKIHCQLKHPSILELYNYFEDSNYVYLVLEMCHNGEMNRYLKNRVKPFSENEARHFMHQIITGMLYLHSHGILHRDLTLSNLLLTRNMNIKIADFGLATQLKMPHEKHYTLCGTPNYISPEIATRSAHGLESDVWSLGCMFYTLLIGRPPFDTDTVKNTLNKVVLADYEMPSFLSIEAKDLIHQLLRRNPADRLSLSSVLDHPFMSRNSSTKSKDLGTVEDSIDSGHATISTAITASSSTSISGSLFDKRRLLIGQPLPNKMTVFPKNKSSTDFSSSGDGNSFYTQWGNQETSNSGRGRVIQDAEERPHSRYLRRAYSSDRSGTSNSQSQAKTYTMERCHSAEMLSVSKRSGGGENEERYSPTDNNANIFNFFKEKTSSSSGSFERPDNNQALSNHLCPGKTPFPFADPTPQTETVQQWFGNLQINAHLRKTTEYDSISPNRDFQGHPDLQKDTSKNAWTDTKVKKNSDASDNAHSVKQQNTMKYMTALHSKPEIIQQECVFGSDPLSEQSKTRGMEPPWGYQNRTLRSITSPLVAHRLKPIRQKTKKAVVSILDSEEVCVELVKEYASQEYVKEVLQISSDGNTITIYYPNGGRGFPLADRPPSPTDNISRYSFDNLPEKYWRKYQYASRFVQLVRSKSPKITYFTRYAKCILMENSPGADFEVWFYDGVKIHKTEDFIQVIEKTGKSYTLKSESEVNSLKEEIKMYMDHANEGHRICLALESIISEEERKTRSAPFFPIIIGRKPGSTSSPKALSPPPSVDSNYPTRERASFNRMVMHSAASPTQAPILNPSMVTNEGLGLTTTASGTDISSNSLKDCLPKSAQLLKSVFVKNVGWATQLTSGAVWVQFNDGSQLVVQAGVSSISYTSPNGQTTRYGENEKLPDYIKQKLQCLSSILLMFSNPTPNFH
UniProt P06493, whole entry: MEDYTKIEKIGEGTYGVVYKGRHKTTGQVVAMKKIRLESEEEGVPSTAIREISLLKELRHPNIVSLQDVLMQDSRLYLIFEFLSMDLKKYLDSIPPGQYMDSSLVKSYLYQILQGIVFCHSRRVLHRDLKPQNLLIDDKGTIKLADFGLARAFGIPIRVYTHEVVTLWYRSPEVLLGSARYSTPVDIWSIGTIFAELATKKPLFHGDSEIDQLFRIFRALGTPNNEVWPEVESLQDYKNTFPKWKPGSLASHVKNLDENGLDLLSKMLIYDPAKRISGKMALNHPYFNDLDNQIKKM
UniProt P49841, whole entry: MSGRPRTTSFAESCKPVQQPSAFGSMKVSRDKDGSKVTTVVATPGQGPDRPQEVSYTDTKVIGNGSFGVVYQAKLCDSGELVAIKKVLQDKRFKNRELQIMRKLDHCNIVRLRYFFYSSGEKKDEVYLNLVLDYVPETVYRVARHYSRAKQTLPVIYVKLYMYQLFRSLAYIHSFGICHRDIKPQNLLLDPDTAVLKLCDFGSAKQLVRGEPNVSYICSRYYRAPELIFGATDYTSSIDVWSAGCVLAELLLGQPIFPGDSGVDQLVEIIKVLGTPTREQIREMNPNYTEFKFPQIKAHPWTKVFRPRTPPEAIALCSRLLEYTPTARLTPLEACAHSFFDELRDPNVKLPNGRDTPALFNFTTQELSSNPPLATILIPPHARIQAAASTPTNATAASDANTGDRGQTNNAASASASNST
UniProt Q96GD4, whole entry: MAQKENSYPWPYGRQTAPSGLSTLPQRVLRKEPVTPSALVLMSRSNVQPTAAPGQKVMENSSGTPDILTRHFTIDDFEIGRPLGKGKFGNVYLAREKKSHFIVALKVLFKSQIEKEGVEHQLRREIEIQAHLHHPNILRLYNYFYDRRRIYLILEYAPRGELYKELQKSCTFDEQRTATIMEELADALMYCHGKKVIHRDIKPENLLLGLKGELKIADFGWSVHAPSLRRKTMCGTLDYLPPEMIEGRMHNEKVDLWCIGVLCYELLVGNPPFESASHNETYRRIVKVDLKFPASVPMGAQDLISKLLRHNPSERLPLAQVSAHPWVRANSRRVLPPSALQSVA
UniProt P14635, whole entry partner: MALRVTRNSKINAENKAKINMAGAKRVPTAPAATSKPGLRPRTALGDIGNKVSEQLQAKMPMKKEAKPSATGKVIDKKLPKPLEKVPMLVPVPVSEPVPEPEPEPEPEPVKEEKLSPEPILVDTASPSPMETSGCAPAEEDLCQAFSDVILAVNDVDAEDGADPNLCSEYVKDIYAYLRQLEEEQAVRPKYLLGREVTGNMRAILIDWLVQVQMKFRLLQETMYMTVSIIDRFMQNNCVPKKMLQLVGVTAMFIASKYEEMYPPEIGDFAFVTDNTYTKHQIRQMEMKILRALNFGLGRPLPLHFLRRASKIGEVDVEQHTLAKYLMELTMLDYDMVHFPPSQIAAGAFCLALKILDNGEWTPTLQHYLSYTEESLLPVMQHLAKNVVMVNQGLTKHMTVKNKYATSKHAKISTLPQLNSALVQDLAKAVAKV

Assays:
[1] = molecular target: PLK4 (h) (Homo sapiens, UniProt O00444); experiment: PLK-4 human kinase assay (SPA)
Experimental: (§1) The in vitro inhibition of a panel of kinases was assessed using either the scintillation proximity assay (SPA) as described by Cook, N. D. et al., Advances in Experimental Medicine and Biology (1991), 36; p. 525-528; or the Fluorescence Resonance Energy Transfer (FRET) technology as described by Rodems, S. M. et al., Assay Drug Develop. Technol. (2002), 1; p. 9-19.
(§2) In the SPA technology the activity of the kinase of interest is measured using an appropriate biotinylated substrate that is incubated with the aforementioned kinase protein in the presence of (^33P) radiolabeled ATP. (^33P) Phosporylation of the substrate is subsequently measured through binding of the phosphorylated substrate to streptavidine coated beads that are based on the scintillant poly(vinyl toluene) (PVT-Beads). The scintillation intensity is detected by imaging on Leadseeker.
(§3) All kinases are pre-diluted to a 10× working concentration prior to addition into the assay. The composition of the dilution buffer for each kinase is detailed below.
In a final reaction volume of 30 μl PLK4 (h) (19 μg/ml) is incubated with 50 mM Hepes pH 8.0, 10 mM MgCl2, 50 mM NaCl, 1 mM NaF, 1 mM DTT, 10 μM of peptide Biotin-RPRGQRDSSYYWE-OH, 1 μM ATP and 2 nM [γ-^33P-ATP] (6.0 μCi/ml). After incubation of 60 minutes at room temperature, the reaction is stopped by addition of 40 μl, of stop solution containing 8.7 mM EDTA, BSA 0.17%, 0.17% Triton X-100, 1.7 mg/ml SPA beads (GE-healthcare). The plate is centriguged and read for Scintillation imaging on Leadseeker.

[2] = tested on: H1299; experiment: Cellular proliferation assay (Alamar blue), H1299; settings: H1299 cells, 72 hours with compound, 10% FCS
Experimental: (§4) […] functional properties of these compounds was tested in cellular proliferation assays on a panel of different cell lines in the presence of 10% FCS serum (37° C. and 5% (v/v) CO2). In a first step these cells were seeded and incubated for 24 hours in the absence of compound. In the second step the cells were incubated for 72 hours with the compounds to be tested for 72 hours. The viable cell number was finally assessed in a standard Alamar blue cell viability assay.
(§5) The viable cell number was assessed by incubation for either 4 h (HCT-116, H1299, H460) 6 h (SKOV3, HT29, U87-MG, Colo205) or 24 h (A2780, PC3, MDA-MB-231, A549, MCF-7) with Alamar blue (Resazurin 9 μg/ml, K-Ferrocyanide 90 μM K-Ferricyanide 90 μM) and the converted fluorescent product was quantified on a fluorescent plate readed (544 nm/590 nm). Effect of the compounds is calculated as of on control cells.

[3] = tested on: PC-3; experiment: Cellular proliferation assay (Alamar blue), PC-3; settings: PC-3 cells, 72 hours with compound, 10% FCS
Experimental: as §4, §5

[4] = tested on: MDA/MB231; experiment: Cellular proliferation assay (Alamar blue), MDA/MB231; settings: MDA/MB231 cells, 72 hours with compound, 10% FCS
Experimental: as §4, §5

[5] = molecular target: CDK1/CyclinB (h) (Homo sapiens, UniProt P06493); experiment: CDK1/CyclinB human kinase assay (FRET)
Experimental: as §1
In the FRET technology the activity of the kinase of interest is measured using an appropriate substrate that is labeled with two fluorophores (coumarin and fluorescein). Phosphorylation is determined using a developing reagent comprising a protease that recognizes and cleaves nonphosphorylated peptides. Cleavage will disturb the FRET between the fluorescein and coumarin on the peptide. Uncleaved, phosphorylated peptides maintain the FRET signal. A ratiometric readout of the donor emission over the acceptor emission quantitates the reaction process.
as §3
In a final reaction volume of 10 μl, CDK1/CyclinB (h) (0.2 μg/ml) is incubated with 50 mM Hepes pH 7.5, 10 mM MgCl2, 1 mM EGTA, 0.01% Brij-35, 2 μM Z'lyte Ser/Thr peptide 12 and 10 μM ATP (Invitrogen's FRET assay). After incubation of 60 minutes at room temperature, the reaction is stopped by addition of 5 μL development reagent containing protease mix. After 60 minutes room temperature the development reaction is stopped by adding 5 μl stop solution. The plate is then read in fluorescence plate reader with excitation: 390 nm and dual emission: 460 and 538 nm. Emission ratio is determined to the formula=Emission signal intensity at 460 nm/Emission signal intensity at 538 nm.

[6] = tested on: A2780; experiment: Cellular proliferation assay (Alamar blue), A2780; settings: A2780 cells, 72 hours with compound, 10% FCS
Experimental: as §4, §5

[7] = molecular target: GSK3β (h) (Homo sapiens, UniProt P49841); experiment: GSK-3β human kinase assay (SPA)
Experimental: as §1, §2, §3
In a final reaction volume of 30 μl, GSK3β (h) (1 μg/ml) is incubated with 25 mM Tris pH 7.4, 10 mM MgCl2, 1 mM DTT, 1 μM peptide Biotin-KRREILSRRPSYR-OH, 1 μM ATP and 2 nM [γ-^33P-ATP] (6.0 μCi/ml). After incubation of 60 minutes at room temperature, the reaction is stopped by addition of […] of stop solution containing 8.7 mM EDTA, BSA 0.17%, 0.17% Triton X-100, 6.25 mg/ml SPA beads (GE-healthcare). The plate is centriguged and read for Scintillation imaging on Leadseeker.

[8] = molecular target: AuroraB (h) (Homo sapiens, UniProt Q96GD4); experiment: Aurora-B human kinase assay (SPA)
Experimental: as §1, §2, §3
In a final reaction volume of 30 μl, AuroraB (h) (0.5 μg/ml) is incubated with 60 mM Hepes pH 7.5, 3 mM MgCl2, 3 mM MnCl2, 3 μM Na3VO4, 0.05 mg/ml PEG, 2 mM DTT, 3 μM Biotin-[…]-OH, 0.5 μM ATP and 2.2 nM [γ-^33P-ATP] (6.8 μCi/ml). After incubation of 60 minutes at room temperature, the reaction is stopped by addition of 40 μL of stop solution containing 8.7 mM EDTA, BSA 0.17%, 0.17% Triton X-100, 5 mg/ml SPA beads (GE-healthcare). The plate is centriguged and read for Scintillation imaging on Leadseeker.

[9] = tested on: U87MG; experiment: Cellular proliferation assay (Alamar blue), U87MG; settings: U87MG cells, 72 hours with compound, 10% FCS
Experimental: as §4, §5

[10] = tested on: HCT-116; experiment: Cellular proliferation assay (Alamar blue), HCT-116; settings: HCT-116 cells, 72 hours with compound, 10% FCS
Experimental: as §4, §5

[11] = tested on: SKOV3; experiment: Cellular proliferation assay (Alamar blue), SKOV3; settings: SKOV3 cells, 72 hours with compound, 10% FCS
Experimental: as §4, §5

Compound	PLK4 pIC50 [1]	pIC50 H1299 [2]	pIC50 PC-3 [3]	pIC50 MDA/MB231 [4]	CDK1 pIC50 [5]	pIC50 A2780 [6]	GSK3B pIC50 [7]	AuroraB pIC50 [8]	pIC50 U87MG [9]	pIC50 HCT-116 [10]	pIC50 SKOV3 [11]
COc1cc2cc(c1OC)OCC(=O)N(C)CCN(C)CCNc1ncnc3c1/C(=C/N2)C(=O)N3	5.35	<5	<5	<5	<5	<5	<5	5.28	<5	<5	
COCCN1CCOc2cc(ccc2OC)N/C=C2\C(=O)Nc3ncnc(c32)NCCN(C)C(=O)C1							5.91	5.61			
COCCN1CCOc2cccc(c2)N/C=C2\C(=O)Nc3ncnc(c32)NCCNC(=O)C1							6.08	5.25			
COCCN1CCCOc2cccc(c2)N/C=C2\C(=O)Nc3ncnc(c32)N2CCN(CC2)C(=O)C1	5.24 and 5.13						5.63 and 5.47	<5			
CN1CCCNc2ncnc3c2/C(=C/Nc2ccc(Cl)c(c2)OCCN2C[C@H](O)C[C@@H]2C1=O)C(=O)N3								<5			
CN1CCCNc2ncnc3c2/C(=C/Nc2cccc(c2)OCC(=O)N[C@H](Cc2ccccc2)C1)C(=O)N3 [Compound 176]	5.93	<5	<5	<5		<5	5.31	<5	<5	<5	
COCCN1CCCOc2cc(ccc2Cl)N/C=C2\C(=O)Nc3ncnc(c32)NCCNC(=O)C1							5.77	4.99			
CN1CCOc2cccc(c2)N/C=C2\C(=O)Nc3ncnc(c32)N2CCN(CC2)C(=O)[C@H]1CO	<5						6.4	<5			
CN1CCNc2ncnc3c2/C(=C/Nc2cccc(c2)OCCCN2C[C@H](O)C[C@@H]2C1=O)C(=O)N3								<5			
COc1ccc2cc1OCCCN(C)[C@H](CO)C(=O)NCCNc1ncnc3c1/C(=C/N2)C(=O)N3							5.76	6.03			
COCCN1CCOc2cc(ccc2Cl)N/C=C2\C(=O)Nc3ncnc(c32)NCCN(C)C(=O)C1							6.02				
CN1CCNc2ncnc3c2/C(=C/Nc2ccc(N4CCOCC4)c(c2)OCCCCC1=O)C(=O)N3	6.585	<5	<5	<5	<5	<5	6.275	<5	<5	<5	5.18
COc1ccc2cc1OCC(=O)N(C)CCN(C)CCNc1ncnc3c1/C(=C/N2)C(=O)N3	6.1	<5	<5	<5	<5	<5	6.24	5.94	<5	<5	
COc1ccc2cc1CN(C)CC(=O)N(C)CCN(C)CCNc1ncnc3c1/C(=C/N2)C(=O)N3	5.2	5.03	<5	<5	<5	<5	6.24	<5	<5	<5	
COCCN1CCCOc2cccc(c2)N/C=C2\C(=O)Nc3ncnc(c32)NCCNC(=O)C1	6.27 and 6.12						5.55 and 5.73	5.59 and 5.37			
CN1CCCNc2ncnc3c2/C(=C/Nc2cccc(c2)OCCN2C[C@H](O)C[C@@H]2C1=O)C(=O)N3	<5						5.18	<5			
CN1CCCOc2cccc(c2)N/C=C2\C(=O)Nc3ncnc(c32)N2CCN(CC2)C(=O)[C@H]1CO	<5						6.37	<5			
CN1CCNc2ncnc3c2/C(=C/Nc2ccc(Cl)c(c2)OCCCN2C[C@H](O)C[C@@H]2C1=O)C(=O)N3							5.45	<5			
CN1CCNc2ncnc3c2/C(=C/Nc2ccc(N4CCOCC4)c(c2)OCCCCCC1=O)C(=O)N3	6.26	5.51	<5	<5	5.23	<5	6.15	5.61	<5	<5	<5

Values joined by “and” are separate entries in the source; they are usually repeats but may differ in a detail not shown here. Equal entries are not always repeated.
